Experimental data taken from ChEMBL document CHEMBL1157833, “Serotonin derivatives as a new class of non-ATP-competitive receptor tyrosine kinase inhibitors” (Bioorg Med Chem, 2010).

Protein sequences, listed by entry. Tags and fused reporters are not part of them.
UniProt P00533, whole entry: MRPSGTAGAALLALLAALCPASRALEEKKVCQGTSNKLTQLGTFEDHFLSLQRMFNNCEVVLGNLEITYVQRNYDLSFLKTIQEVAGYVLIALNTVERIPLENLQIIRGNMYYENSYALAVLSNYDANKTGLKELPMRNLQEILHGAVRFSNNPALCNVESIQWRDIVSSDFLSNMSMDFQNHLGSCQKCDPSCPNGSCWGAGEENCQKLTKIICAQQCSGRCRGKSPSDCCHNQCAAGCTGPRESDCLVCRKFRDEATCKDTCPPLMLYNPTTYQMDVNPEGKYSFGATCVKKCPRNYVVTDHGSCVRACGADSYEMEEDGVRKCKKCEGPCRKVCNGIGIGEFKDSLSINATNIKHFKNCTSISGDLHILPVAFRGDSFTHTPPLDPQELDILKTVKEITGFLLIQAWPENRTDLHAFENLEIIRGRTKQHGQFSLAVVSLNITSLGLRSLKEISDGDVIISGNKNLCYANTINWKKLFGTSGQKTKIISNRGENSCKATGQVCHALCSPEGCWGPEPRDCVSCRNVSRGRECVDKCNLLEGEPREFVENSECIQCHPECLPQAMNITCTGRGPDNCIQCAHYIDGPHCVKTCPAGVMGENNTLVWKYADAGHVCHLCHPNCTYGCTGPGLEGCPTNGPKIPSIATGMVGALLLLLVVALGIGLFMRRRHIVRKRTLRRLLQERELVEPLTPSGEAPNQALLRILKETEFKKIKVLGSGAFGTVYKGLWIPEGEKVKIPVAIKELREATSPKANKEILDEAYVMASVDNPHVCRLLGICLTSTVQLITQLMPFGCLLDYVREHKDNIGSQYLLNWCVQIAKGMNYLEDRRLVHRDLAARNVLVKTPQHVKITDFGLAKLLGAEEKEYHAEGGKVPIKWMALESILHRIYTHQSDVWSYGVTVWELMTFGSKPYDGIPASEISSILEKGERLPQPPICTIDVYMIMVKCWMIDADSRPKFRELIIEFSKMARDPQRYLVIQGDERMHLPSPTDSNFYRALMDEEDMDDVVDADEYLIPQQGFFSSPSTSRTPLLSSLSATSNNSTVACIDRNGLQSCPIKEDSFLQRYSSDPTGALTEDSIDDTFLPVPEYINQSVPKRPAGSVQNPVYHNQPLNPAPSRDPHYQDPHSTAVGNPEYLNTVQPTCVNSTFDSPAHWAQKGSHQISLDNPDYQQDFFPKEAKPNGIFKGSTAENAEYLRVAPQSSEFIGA

Target: Epidermal growth factor receptor (Homo sapiens, UniProt P00533)
Experiment: Inhibition of EGFR after 30 mins by chemiluminescence ELISA

- IC50: 2280 nM
Compound: NC1CCc2c(c3cc(OCCc4ccc(O)cc4)ccc3n2CCCCCc2ccccn2)C1 (stereo unspecified)
